Laboratory results from paper PMC7341468 (BMC Pharmacology & Toxicology, 2020).
Read-outs that look alike come from different tables or passages of the source.

Legend:
serum albumin = conditions: cited from earlier work
[1] = cited from earlier work

For teicoplanin, the “Teicoplanin max Cmin” value (single patient No 5, conventional regimen, total dose initial 3 days 33.8 mg/kg, eGFR 23, serum albumin 2.8 g/dL) was 11000 ng/mL, the “Patients with teicoplanin initial Cmin ≥20 μg/mL” value (from here on “Patients”) (with factor: APACHE II score ≥ 15, 54/130 patients) was 54/130 (41.5%) and the “Patients” value (with factor: Age (> 65 years), 162/318 patients) was 162/318 (50.9%). The “Patients” value (with factor: Anticancer therapy, 26/47 patients) was 26/47 (55.3%), the “Patients” value (with factor: Body mass index ≥25, 47/74 patients) was 47/74 (63.5%) and the “Patients” value (with factor: Body mass index< 18.5, 59/124 patients) was 59/124 (47.6%). The “Patients” value (with factor: Chronic renal failure, 47/116 patients) was 47/116 (40.5%), the “Patients” value (with factor: Chronic respiratory disease, 14/27 patients) was 14/27 (51.9%) and the “Patients” value (with factor: Collagen disease, 25/53 patients) was 25/53 (47.2%). The “Patients” value (with factor: Complicated MRSA infections, 54/99 patients) was 54/99 (54.5%), the “Patients” value (with factor: Diabetes mellitus, 58/112 patients) was 58/112 (51.8%) and the “Patients” value (with factor: Heart disease, 111/208 patients) was 111/208 (53.4%). The “Patients” value (with factor: Immunosuppressive therapy, 18/28 patients) was 18/28 (64.3%), the “Patients” value (with factor: Inflammatory bowel disease, 44/89 patients) was 44/89 (49.4%) and the “Patients” value (with factor: Intensive care unit stay (> 3 days), 34/98 patients) was 34/98 (34.7%). The “Patients” value (with factor: Liver cirrhosis/chronic hepatic dysfunction, 34/72 patients) was 34/72 (47.2%), the “Patients” value (with factor: MRSA infections, 72/139 patients) was 72/139 (51.8%) and the “Patients” value (with factor: Malignant tumor, 99/204 patients) was 99/204 (48.5%). For the same substance, the “Patients” value (with factor: Serum albumin < 2.5 g/dL (median), 79/217 patients) was 79/217 (36.4%), the “Patients” value (with factor: Sex (male), 161/318 patients) was 161/318 (50.6%) and the “Patients” value (with factor: Steroid use, 42/85 patients) was 42/85 (49.4%). The “Patients” value (with factor: Surgery within 28 days, 68/158 patients) was 68/158 (43.0%), the “Patients” value (with factor: Total parenteral nutrition, 45/102 patients) was 45/102 (44.1%) and the “Patients” value (with factor: Transplantation, 6/8 patients) was 6/8 (75.0%). The “Patients” value (with factor: Ventilator use, 37/90 patients) was 37/90 (41.1%), the “Patients” value (with factor: eGFR≥60 mL/min/1.73 m^2, 164/293 patients) was 164/293 (56.0%) and the “Patients” value (without factor: APACHE II score ≥ 15, 213/382 patients) was 213/382 (55.8%). For the same substance, the “Patients” value (without factor: Age (> 65 years), 105/194 patients) was 105/194 (54.1%), the “Patients” value (without factor: Anticancer therapy, 241/465 patients) was 241/465 (51.8%) and the “Patients” value (without factor: Body mass index ≥25, 220/438 patients) was 220/438 (50.2%). The “Patients” value (without factor: Body mass index< 18.5, 208/388 patients) was 208/388 (53.6%), the “Patients” value (without factor: Chronic renal failure, 220/396 patients) was 220/396 (55.6%) and the “Patients” value (without factor: Chronic respiratory disease, 253/485 patients) was 253/485 (52.2%). The “Patients” value (without factor: Collagen disease, 242/459 patients) was 242/459 (52.7%), the “Patients” value (without factor: Complicated MRSA infections, 213/413 patients) was 213/413 (51.6%) and the “Patients” value (without factor: Diabetes mellitus, 209/400 patients) was 209/400 (52.3%). For the same substance, the “Patients” value (without factor: Enhanced high loading dose regimen (conventional regimen), 150/363 patients) was 150/363 (41.3%), the “Patients” value (without factor: Heart disease, 156/304 patients) was 156/304 (51.3%) and the “Patients” value (without factor: Immunosuppressive therapy, 249/484 patients) was 249/484 (51.4%). The “Patients” value (without factor: Inflammatory bowel disease, 223/423 patients) was 223/423 (52.7%), the “Patients” value (without factor: Intensive care unit stay (> 3 days), 233/414 patients) was 233/414 (56.3%) and the “Patients” value (without factor: Liver cirrhosis/chronic hepatic dysfunction, 233/440 patients) was 233/440 (53.0%). For the same substance, the “Patients” value (without factor: MRSA infections, 195/373 patients) was 195/373 (52.3%), the “Patients” value (without factor: Malignant tumor, 168/308 patients) was 168/308 (54.5%) and the “Patients” value (without factor: Serum albumin < 2.5 g/dL (median), 188/295 patients) was 188/295 (63.7%). The “Patients” value (without factor: Sex (male), 106/194 patients) was 106/194 (54.6%), the “Patients” value (without factor: Steroid use, 225/427 patients) was 225/427 (52.7%) and the “Patients” value (without factor: Surgery within 28 days, 199/354 patients) was 199/354 (56.2%). For the same substance, the “Patients” value (without factor: Total parenteral nutrition, 222/410 patients) was 222/410 (54.1%), the “Patients” value (without factor: Transplantation, 261/504 patients) was 261/504 (51.8%) and the “Patients” value (without factor: Ventilator use, 230/422 patients) was 230/422 (54.5%). For the same substance, the “Patients” value (without factor: eGFR≥60 mL/min/1.73 m^2, 103/219 patients) was 103/219 (47.0%), the “Teicoplanin bound to serum albumin” value (serum albumin) was “Approximately 90%” and the Half-life [1] was 83 to 168 h. The “Repeated administration required to reach 93% of the concentration at steady state” value [1] was 14 days.
